The list shows a part of the results, in another mix than the full data. The source made the active and inactive calls. Rule as the data show it: active = activity change below about -80%; inconclusive = between about -30% and that limit; inactive = weaker than that.
Test: Small Molecules that selectively kill Giardia lamblia: qHTS;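 also: parasites exposed to compound for two days anaerobically before the ATP read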
Conditions: Giardia lamblia trophozoite viability; at 7.66 µM; active compounds read low
Text: Giardia lamblia is a human pathogen afflicting impoverished nations, and the most common cause of outbreaks of diarrhea in the United States. Giardia has been classified by the CDC as a category B bioterrorism organism. The favored anti giardiasis drugs in the US are metronidazole or tinidazole, compounds that have undesirable side effects. Moreover, increasing resistance to drug regimes and recurrence are a concern. It is thus clear that alternative drug treatments are needed.
In a collaboration between the University of Maryland, College Park and the NIH Chemical Genomics Center, a bioluminescence Giardia viability assay based on the trophozoites' ATP content was developed. This assay is suitable for high throughput screening, and miniaturized the assay for compound screening in 1536-well plates. The goal of the project is to screen the Molecular Libraries Small Molecule Repository (MLSMR) for compounds that selectively kill Giardia trophozoites.
NIH Chemical Genomics Center [NCGC]
NIH Molecular Libraries Probe Centers Network [MLPCN]
Assay Submitter (PI): Osnat Herzberg, University of Maryland, College Park, MD.
1. Dispense 2 ul/well media
2. Dispense 23 nl/well compounds
3. Dispense 4 ul/well Giardia trophozoites at a concentration of 100 cells/well
4. Incubate 48 hrs at 37 deg C anaerobically
5. Dispense 4 ul/well ATPLite 1-Step Luminescence assay kit
6. Incubate 15-30 min at room temperature
7. Read luminescence signal on ViewLux plate reader
% is scaled to controls: 0 for no effect and ±100 for the full control effect.

SMILES | activity change
CC(C)CC(=O)NC(Sc1ccc(Cl)cc1)C(Cl)(Cl)Cl (stereo not given) | inactive: 0.469%
Nc1cc(N)c2nonc2c1[N+](=O)[O-] | inactive: 10.8%
O=C(NC(Sc1ccncn1)C(Cl)(Cl)Cl)c1ccccc1 (stereo not given) | inactive: 7.02%
Oc1ccccc1CNc1ccccn1 | inactive: -6.75%
Cc1ccc(N/C(=N/P(=O)(N2CCOCC2)N2CCOCC2)N2CCOCC2)cc1 | inactive: 2.89%
CN(C(=O)Cc1ccc(Cl)c(Cl)c1)[C@H]1CCCC[C@H]1N1CCCC1 | inactive: -3.06%
Cc1ccc(OP(=O)(Nc2nccs2)Oc2ccc(C)cc2)cc1 | inactive: 5.86%
COc1ccccc1OP(=O)(Nc1ccc(C)cn1)Oc1ccccc1OC | inactive: -9.33%
Clc1ccc(Cl)c(NC2=NCC(CBr)S2)c1 (stereo not given) | inactive: -2.29%
CN1CCCC(OC(=O)C(c2ccccc2)c2ccccc2)C1 (stereo not given) | inactive: -11.5%
CCN(N=Nc1nonc1N)c1nonc1N | inactive: -1.45%
CCCC1OP(N)(=O)OCC1CC (stereo not given) | inactive: -1.64%
CC(=O)Nc1ccc([As](=O)(O)O)cc1 | inactive: -4.66%
O=P(Nc1nc2ccc(Cl)cc2s1)(c1ccccc1)c1ccccc1 | inactive: -22.7%
Cc1ccc(NP(=O)(Oc2ccccc2F)Oc2ccccc2F)nc1 | inactive: -4.8%
CN(C(=O)Cc1ccc(Cl)c(Cl)c1)[C@H]1CCCC[C@@H]1N1CCCC1 | inactive: 3.55%
CCOP(=O)(Nc1ccccc1)OCC | inactive: -5.08%
Cc1cc(SC(NC(=O)c2ccc(F)cc2)C(Cl)(Cl)Cl)ncn1 (stereo not given) | inactive: 2.87%
CC(C)(C)C(=O)NC(Sc1ccncn1)C(Cl)(Cl)Cl (stereo not given) | inactive: 0.906%
O=[N+]([O-])c1ncn(CCn2ncnc2[N+](=O)[O-])n1 | inactive: -17.9%
O=[N+]([O-])c1cccc(NC2=NCC(CBr)S2)c1 (stereo not given) | inactive: -21.1%
COC(=O)C1(C)COP(=O)(Nc2ccccc2)OC1 (stereo not given) | inactive: -3.37%
O=C(O)CNc1ccc([As](=O)(O)O)cc1 | inactive: -8.35%
O=P1(N(CCCl)CCCl)OCCCS1 (stereo not given) | inactive: -18.5%
O=C(Nc1cc([As](=O)(O)O)ccc1O)c1ccccc1 | inactive: -10.1%

SMILES | activity change
O=P(/N=c1/nc(-c2ccccc2)n(-c2ccccc2)s1)(Nc1ccccc1)Nc1ccccc1 | inactive: 31.1%
C[N+]1=C2C=CC=CC=C2SC12C([N+](=O)[O-])=CC([N+](=O)[O-])=C[C-]2[N+](=O)[O-] (stereo not given) | active: -86.3%
Nc1ccc([As](=O)(O)c2ccc(N)cc2)cc1 | inactive: 0.0025%
CCN(/C(=N/P(=O)(N1CCOCC1)N1CCOCC1)N1CCOCC1)c1ccc(OC)cc1 | inactive: -0.5%
CN(C)C(=O)OCCc1n(C)cc[n+]1C | inactive: -0.919%
CC(C)=N/N=C(\N)N[N+](=O)[O-] | inactive: 1.62%
CC1CCN(C(=O)Oc2c(Cl)cc(Cl)c3cccnc23)CC1 | inactive: 17.6%
COc1ccc(C2=NCC(CBr)S2)cc1 (stereo not given) | inactive: -1.19%
CC(=O)N1C2C3N(C(C)=O)C1C1N(C(C)=O)C(C(N1C(C)=O)N3C(C)=O)N2C(C)=O | inactive: -15.9%
CCc1nc2c(n1)c1c(non1O)c1c2no[n+]1[O-] | inactive: -8.45%
O=[N+]([O-])c1cc([N+](=O)[O-])c(CCNc2ccccc2)c([N+](=O)[O-])c1 | inactive: -17.9%
Cc1ccc(NP(=O)(Oc2ccccc2)Oc2ccccc2)nc1 | inactive: -28.5%
CC(C)C(=O)NC(Sc1ccccc1)C(Cl)(Cl)Cl (stereo not given) | inactive: 8.35%
O=P(Nc1nccs1)(c1ccccc1)c1ccccc1 | inactive: 1.01%
c1nnnn1CCn1cnnn1 | inactive: 15.2%
O=[N+]([O-])c1ccc(O)c(/C=N/Nc2ccc([N+](=O)[O-])cc2[N+](=O)[O-])c1 | inactive: 17%
O=[N+]([O-])c1ncn(CCn2cnc([N+](=O)[O-])n2)n1 | inactive: -7.33%
CC(=O)NC(SC(=S)N(C)C)C(Cl)(Cl)Cl (stereo not given) | inactive: 3.55%
C(Cc1nn[nH]n1)Cc1nn[nH]n1 | inactive: -12.5%
O=C(OC1CN2CCC1CC2)c1cccc(Cl)c1 (stereo not given) | inactive: 1.57%
COc1ccc(N)c([N+](=O)[O-])c1[N+](=O)[O-] | inactive: -18.1%
O=P(Nc1ccccn1)(c1ccc(Br)cc1)c1ccc(Br)cc1 | inactive: 14.3%
CN(C)C1(CNC(=O)c2ccc(Cl)c(S(N)(=O)=O)c2)CCCCC1 | inactive: -0.322%
C[C@H]1OP(=O)(Oc2ccccc2)[C@H](O)[C@H](O)[C@H]1N=[N+]=[N-] (stereo not given in full) | inactive: 9.64%
O=P(Nc1nc2ccccc2s1)(c1ccccc1)c1ccccc1 | inactive: -3.16%

SMILES | activity change
Cc1ccc(OP(=O)(Nc2ccccn2)Oc2ccc(C)cc2)cc1 | inactive: 5.06%
CC(=O)NC(SC(=S)N(CC(C)C)CC(C)C)C(Cl)(Cl)Cl (stereo not given) | inactive: -19.9%
COC(=O)c1cc2c(s1)N=C(c1ccccc1)N(C)P2(=O)N1CCOCC1 (stereo not given) | inactive: -20.8%
CCC(=O)N1C2C3N(C(=O)CC)C1C1N(C(=O)CC)C(C(N1C(=O)CC)N3C(=O)CC)N2C(=O)CC | inactive: 7.91%
O=C(OC1CN2CCC1CC2)c1ccccc1 (stereo not given) | inactive: -9.71%
CN(C)C(=O)Oc1noc2ccccc12 | inactive: -9.49%
Cc1ccccc1OP(=O)(Nc1ccccn1)Oc1ccccc1C | inactive: -6.32%
CC(NC(=O)COC(=O)C(O)(c1ccccc1)c1ccccc1)c1ccccc1 (stereo not given) | inactive: -6.3%
CCNC(=S)/N=C(\N)N[N+](=O)[O-] | inactive: 20.5%
O=C(NC1CCS(=O)(=O)C1)NP(=S)(Oc1ccccc1)Oc1ccccc1 (stereo not given) | inactive: -11.3%
Cc1ccc(NP(=O)(Oc2cccc(C)c2)Oc2cccc(C)c2)nc1 | inactive: -2.44%
c1ccc(-c2nn[nH]n2)c(-c2nn[nH]n2)c1 | inactive: -23.1%
O=P1(N(CCCl)CCCl)OCCC2CCCCN21 (stereo not given) | inactive: 20.1%
COC(=O)C1(C)COP(=O)(NCc2ccccc2)OC1 (stereo not given) | inactive: -19.8%
N#C/C(=C\c1ccc(N(CCBr)CCBr)cc1)C(N)=O | inactive: -8.24%
CC(=O)c1ccc(N2CC2c2ccncc2)cc1 (stereo not given) | inactive: -9.87%
C[C@@H]1C=CCP(=O)(Oc2ccccc2)O1 (stereo not given in full) | inactive: -13.7%
C[C@H]1OP(=O)(Oc2ccccc2)C[C@@H]2O[C@@H]21 (stereo not given in full) | inactive: 4.34%
Cc1ccccc1CN(C)C(=O)COC(=O)C(O)(c1ccccc1)c1ccccc1 | inactive: 52%
CC(=O)Nc1ccc(Oc2c([N+](=O)[O-])cc([N+](=O)[O-])cc2[N+](=O)[O-])cc1 | inactive: -5.37%
CC(=O)Nc1ccc([As](=O)(O)O)c(O)c1 | inactive: -22.5%
CCOc1ccc(C2=NCC(CBr)S2)cc1 (stereo not given) | inactive: -13.7%
O=P1(Nc2nc3ccc(Cl)cc3s2)COc2ccccc2O1 (stereo not given) | inactive: -11.3%
CCc1cc(O)c([N+](=O)[O-])c(C)c1[N+](=O)[O-] | inactive: -3.15%
CC(C)(C)C(=O)NC(Sc1ccccc1)C(Cl)(Cl)Cl (stereo not given) | inactive: 0.649%

SMILES | activity change
CCCOP(=S)(Nc1nc(N)cc(=O)[nH]1)OCCC | inactive: 10.8%
Nc1cccc2c([As](=O)(O)O)cccc12 | inactive: -15%
CCOP(=O)(Nc1cccc2ccccc12)OCC | inactive: 0.79%
COc1cc(C2NCCC3(OCCO3)C2(C)C)cc(OC)c1OC (stereo not given) | inactive: -4.58%
CS(=O)(=O)c1ccc(Cl)c(NC(=O)COC(=O)C(O)(c2ccccc2)c2ccccc2)c1 | inactive: 11.1%
COc1cc(C(=O)NCC2(N3CCOCC3)CCCCC2)cc(Cl)c1OC(C)C | inactive: 2.37%
O=[As](O)(O)c1cccnc1 | inactive: -22.6%
O=C(OC1CN2CCC1CC2)c1ccc(Cl)cc1 (stereo not given) | inactive: -17.3%
O=[As](O)(c1cccc(O)c1)c1cccc(O)c1 | inactive: 24.6%
Cc1cccc(OCC(=O)OC2CN3CCC2CC3)c1 (stereo not given) | inactive: -19.3%
NC(=O)Nc1ccc([As](=O)(O)O)cc1 | inactive: 5.64%
CN(C(=O)Cc1ccc(Cl)c(Cl)c1)[C@H]1CC[C@@]2(CCCO2)C[C@@H]1N1CCCC1 | inactive: 9.22%
CN(C)C(=O)c1cc([N+](=O)[O-])cc2c1-c1c(cc([N+](=O)[O-])cc1[N+](=O)[O-])C2=O | inactive: -10.1%
O=[N+]([O-])c1ccc2c(c1)nnn2O | inactive: 7.26%
CN(C(=O)Cc1ccccc1)[C@@H]1CC[C@]2(CCCO2)C[C@H]1N1CCCC1 | inactive: 11.3%
CCOP1(=S)c2c(C)nn(CCC#N)c2N=C(c2ccc(F)cc2)N1C (stereo not given) | inactive: -4.9%
N#CCCN(C(=O)COC(=O)C(O)(c1ccccc1)c1ccccc1)c1ccc(F)cc1 | inactive: 0.16%
CS(=O)(=O)c1cc([N+](=O)[O-])c2no[n+]([O-])c2c1 | inactive: -0.128%
O=P(Nc1nccs1)(c1ccccc1)c1nc2ccccc2s1 (stereo not given) | inactive: -9.41%
CCOP1(=S)c2c(C)nn(CCC#N)c2N=C(c2ccccc2F)N1C (stereo not given) | inactive: -8.47%
Nc1ccccc1[As](=O)(O)c1ccccc1 | inactive: -27%
O=C(O)COc1ccc([As](=O)(O)O)cc1[N+](=O)[O-] | inactive: -2.69%
O=P1(Nc2ncccn2)COc2ccccc2OC1 | inactive: 12.8%
O=P1(Nc2ccc(Br)cn2)COc2ccccc2OC1 | inactive: -3.46%
NS(=O)(=O)c1cccc(NC(=O)COC(=O)C(O)(c2ccccc2)c2ccccc2)c1 | inactive: -6.26%

From PubChem BioAssay AID540267 (National Center for Advancing Translational Sciences (NCATS), 2011)
